{"source": "patent US9193755B1", "about": "“TFEB variants and uses thereof” (Fondazione Telethon, priority 2011, dated 2015)", "origin": "cited, not measured here", "target": "mTOR (Homo sapiens, UniProt P42345)", "details": "recent data (41, 47, 48); cited from earlier work", "data": [{"compound": "CCC(=O)N1CCN(c2ccc(-n3c(=O)ccc4cnc5ccc(-c6cnc7ccccc7c6)cc5c43)cc2C(F)(F)F)CC1", "note": "[Torin 1]", "values": [{"measurement": "mTOR inhibition", "value": "completely inhibiting mTOR activity"}]}]}
